Earlier results on 1 substance are cited in paper PMC8278521.

Protein sequences, listed by entry. Tags and fused reporters are not part of them. Residues count along the entry.
UniProt P19235, 25-250: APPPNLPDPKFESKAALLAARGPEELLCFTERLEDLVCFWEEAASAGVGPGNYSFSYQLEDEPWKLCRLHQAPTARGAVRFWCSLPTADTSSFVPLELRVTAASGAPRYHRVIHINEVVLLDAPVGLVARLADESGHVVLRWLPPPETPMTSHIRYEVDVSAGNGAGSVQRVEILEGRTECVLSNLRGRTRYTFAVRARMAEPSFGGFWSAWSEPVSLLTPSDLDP

The data set addresses EPOR homodimer (Homo sapiens) (UniProt P19235).

As for EPO (from UniProt P01588), the Kd (in general, a measure of binding affinity in units of concentration) was 0.15 nM.
